{
  "source": "patent US20250073359A1",
  "about": "“RADIOLABELED BIOMOLECULES AND THEIR USE” (DUKE UNIVERSITY, priority 2017, published 2025)",
  "origin": "cited, not measured here",
  "system": "HER2-expressing human breast carcinoma lines",
  "conditions": "3 HER2-expressing human breast carcinoma lines, in vitro",
  "data": [
    {"substance": "^211At-labeled trastuzumab: anti-HER2 monoclonal antibody trastuzumab labeled with the α-emitter ^211At", "values": [
      {"measurement": "relative biological effectiveness versus conventional external beam therapy", "value": "about 10 times"}
    ]}
  ]
}
